Sequences of proteins named here, by UniProt entry; tags and fusion partners are left off. Residues count along the entry.
UniProt Q9GZU7, 76-261 limits assumed: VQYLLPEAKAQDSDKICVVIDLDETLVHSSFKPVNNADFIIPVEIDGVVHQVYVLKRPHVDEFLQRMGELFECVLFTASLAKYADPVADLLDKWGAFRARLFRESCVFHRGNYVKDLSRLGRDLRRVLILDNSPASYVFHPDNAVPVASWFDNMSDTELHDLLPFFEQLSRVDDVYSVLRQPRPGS

Only a part is listed here, and it is no random draw. Activity calls are given as the source filed them.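 The calls were made as follows: active = inhibition above about 50% at 20 µM (limit read from the data); inactive = the rest.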
The compounds below were run against Carboxy-terminal domain RNA polymerase II polypeptide A small phosphatase 1 (Homo sapiens) (UniProt Q9GZU7) (assay: Scp-1 phosphatase inhibitors, primary screen, biochemical, colorimetric, uHTS (AID 493091;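 also: plate controls were DMSO wells with enzyme for no effect and wells lacking enzyme for full effect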)). Settings: Recombinant Scp1, phosphopeptide, malachite green phosphate absorbance; at 20 µM; hits give high values.
In short: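 Assay system: SCP-1 catalytic fragment, aa 76-261 | Buffer or medium: Tris acetate buffer pH 5.5 with MgCl2 and Tween-20 | Compound: One concentration, 20 µM, with 1.0% DMSO | Also added: Phospho 17-mer peptide substrate | Signal: Absorbance at 630 nm | Incubation: 45 min enzyme reaction at room temperature | Measure: % inhibition of SCP-1 phosphate liberation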
With CCc1ccc(OP(C)(=O)O)cc1 the inhibition was inactive: 2.57%.

Reference: PubChem BioAssay AID493091 (Sanford-Burnham Center for Chemical Genomics, 2011)
